Source: US9409858B2, “Selective histone deactylase 6 inhibitors” (H. LEE MOFFITT CANCER CENTER AND RESEARCH INSTITUTE, INC., priority 2012, dated 2016)

The chains behind the UniProt entries cited, without tags or fusion partners. Where a name states a change or a piece, a line headed by the entry shows the natural chain unless it says otherwise.
UniProt Q9UQL6: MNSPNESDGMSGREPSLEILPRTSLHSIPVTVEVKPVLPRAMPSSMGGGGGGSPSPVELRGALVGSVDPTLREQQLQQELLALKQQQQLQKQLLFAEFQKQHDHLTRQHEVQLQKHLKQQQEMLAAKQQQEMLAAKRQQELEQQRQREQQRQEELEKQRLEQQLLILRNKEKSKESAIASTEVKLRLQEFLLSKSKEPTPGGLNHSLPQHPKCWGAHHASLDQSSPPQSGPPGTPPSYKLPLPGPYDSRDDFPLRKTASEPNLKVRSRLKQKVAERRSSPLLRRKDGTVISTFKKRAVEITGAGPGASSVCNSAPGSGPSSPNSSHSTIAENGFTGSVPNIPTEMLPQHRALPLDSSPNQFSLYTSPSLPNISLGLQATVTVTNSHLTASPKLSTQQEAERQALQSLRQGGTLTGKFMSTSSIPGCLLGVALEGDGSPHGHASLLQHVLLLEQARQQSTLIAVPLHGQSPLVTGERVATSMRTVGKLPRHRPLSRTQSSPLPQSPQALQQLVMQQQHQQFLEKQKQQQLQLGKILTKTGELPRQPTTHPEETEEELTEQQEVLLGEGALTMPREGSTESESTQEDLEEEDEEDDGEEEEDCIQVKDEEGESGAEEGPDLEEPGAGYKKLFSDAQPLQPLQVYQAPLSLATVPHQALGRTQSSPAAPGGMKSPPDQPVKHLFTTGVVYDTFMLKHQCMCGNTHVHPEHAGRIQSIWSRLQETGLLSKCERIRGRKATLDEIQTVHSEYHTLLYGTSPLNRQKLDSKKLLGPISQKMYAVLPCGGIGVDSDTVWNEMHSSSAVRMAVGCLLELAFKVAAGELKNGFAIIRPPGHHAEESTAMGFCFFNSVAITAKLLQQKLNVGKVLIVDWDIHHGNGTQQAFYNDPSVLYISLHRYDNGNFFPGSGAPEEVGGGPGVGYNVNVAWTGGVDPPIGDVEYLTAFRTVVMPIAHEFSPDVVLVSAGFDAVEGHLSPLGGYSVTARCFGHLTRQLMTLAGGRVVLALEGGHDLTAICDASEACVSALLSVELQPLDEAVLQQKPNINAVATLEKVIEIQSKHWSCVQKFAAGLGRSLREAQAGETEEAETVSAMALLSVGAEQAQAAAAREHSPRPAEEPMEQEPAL
UniProt Q9UKV0: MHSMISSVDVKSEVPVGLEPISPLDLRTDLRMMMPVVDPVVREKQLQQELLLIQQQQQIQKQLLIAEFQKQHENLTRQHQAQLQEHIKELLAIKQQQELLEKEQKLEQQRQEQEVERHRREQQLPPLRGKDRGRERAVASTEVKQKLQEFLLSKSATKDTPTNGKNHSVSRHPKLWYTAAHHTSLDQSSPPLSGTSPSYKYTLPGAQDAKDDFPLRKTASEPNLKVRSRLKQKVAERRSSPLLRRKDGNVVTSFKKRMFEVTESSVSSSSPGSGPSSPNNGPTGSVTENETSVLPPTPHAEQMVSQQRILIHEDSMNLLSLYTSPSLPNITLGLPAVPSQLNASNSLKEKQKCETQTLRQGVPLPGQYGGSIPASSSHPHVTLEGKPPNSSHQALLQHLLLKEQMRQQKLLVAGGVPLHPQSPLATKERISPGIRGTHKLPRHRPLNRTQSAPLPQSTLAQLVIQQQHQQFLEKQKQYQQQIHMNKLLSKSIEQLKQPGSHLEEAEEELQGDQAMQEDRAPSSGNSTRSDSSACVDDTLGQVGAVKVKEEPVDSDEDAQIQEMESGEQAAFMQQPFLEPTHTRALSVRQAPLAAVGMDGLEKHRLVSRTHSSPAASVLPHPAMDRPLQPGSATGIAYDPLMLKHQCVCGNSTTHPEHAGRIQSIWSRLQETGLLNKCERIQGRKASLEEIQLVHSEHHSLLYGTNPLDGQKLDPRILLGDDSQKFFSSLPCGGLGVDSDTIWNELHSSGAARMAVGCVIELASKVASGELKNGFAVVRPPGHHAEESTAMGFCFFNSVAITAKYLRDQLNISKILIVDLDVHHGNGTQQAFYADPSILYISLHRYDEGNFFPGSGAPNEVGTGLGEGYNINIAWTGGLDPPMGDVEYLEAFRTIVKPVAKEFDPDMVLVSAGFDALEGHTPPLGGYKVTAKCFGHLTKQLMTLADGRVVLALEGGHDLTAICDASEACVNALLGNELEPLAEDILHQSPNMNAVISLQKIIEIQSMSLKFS
UniProt Q969S8: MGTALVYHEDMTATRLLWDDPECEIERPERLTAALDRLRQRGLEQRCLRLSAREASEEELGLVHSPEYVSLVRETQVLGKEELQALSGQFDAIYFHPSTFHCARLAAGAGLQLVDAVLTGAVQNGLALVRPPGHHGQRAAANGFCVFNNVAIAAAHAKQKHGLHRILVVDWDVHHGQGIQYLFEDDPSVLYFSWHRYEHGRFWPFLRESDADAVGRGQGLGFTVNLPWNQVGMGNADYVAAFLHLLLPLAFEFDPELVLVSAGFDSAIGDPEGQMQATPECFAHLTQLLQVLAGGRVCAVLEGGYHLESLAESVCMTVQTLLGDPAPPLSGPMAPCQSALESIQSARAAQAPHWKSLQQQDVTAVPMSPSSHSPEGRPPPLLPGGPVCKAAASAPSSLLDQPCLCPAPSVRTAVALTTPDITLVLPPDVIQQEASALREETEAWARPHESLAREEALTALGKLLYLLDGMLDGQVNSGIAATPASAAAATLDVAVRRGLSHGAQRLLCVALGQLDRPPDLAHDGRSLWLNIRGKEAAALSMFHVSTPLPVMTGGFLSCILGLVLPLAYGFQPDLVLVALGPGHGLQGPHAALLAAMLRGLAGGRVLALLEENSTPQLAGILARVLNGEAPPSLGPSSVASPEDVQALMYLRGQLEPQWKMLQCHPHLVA

Columns and labels:
[1] = test system: B16 murine melanoma cells; experiment: B16 melanoma cell growth inhibition assay (MTS); type: cell-based
[2] = target: HDAC5 (Homo sapiens (Human), UniProt Q9UQL6); details: read-out: IC50 HDAC5; Table 3 isoform profile
[3] = target: HDAC9 (Homo sapiens (Human), UniProt Q9UKV0); details: read-out: IC50 HDAC9; Table 3 isoform profile
[4] = target: HDAC10 (Homo sapiens (Human), UniProt Q969S8); details: read-out: IC50 HDAC10; Table 3 isoform profile

CCCCN(Cc1ccc(C(=O)NO)cc1)C(=O)Nc1ccccc1 [Compound 5g, 4-((1-butyl-3-phenylureido)methyl)-N-hydroxybenzamide]
growth inhibition of B16 melanoma cells (in words) [1]: capable of inhibiting the growth of B16 melanoma cell line | IC50 [2]: 11.7 ± 0.141 µM | IC50 [3]: 6.72 ± 1.15 µM | IC50 [4]: 7.57 ± 0.481 µM
